Measured values from PubChem BioAssay (NCI).
“And” between values parts separate entries of the source, which are not always exact repeats. Equal values may be shown once. The entries are a selection whose mix differs from that of the whole data set.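 48-hour exposure, single concentration, 96-well plates; percent growth endpoint where 0 means no net growth. Active: below 10.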 The source made the active and inactive calls.

What was measured:
Test in all cases: NCI-60 one-dose screen, 48 h (100 = growth as untreated, 0 = no growth, -100 = all killed)
Details in all cases: 10 µM unless noted
NCI/ADR-RES ovarian = test system: NCI/ADR-RES ovarian
T-47D breast = test system: T-47D breast
BT-549 breast = test system: BT-549 breast
MDA-MB-435 melanoma = test system: MDA-MB-435 melanoma
SW-620 colon = test system: SW-620 colon
MCF7 breast = test system: MCF7 breast
HCT-116 colon = test system: HCT-116 colon
HCC-2998 colon = test system: HCC-2998 colon
KM12 colon = test system: KM12 colon

Structure (SMILES)	growth (NCI/ADR-RES ovarian)	growth (T-47D breast)	growth (BT-549 breast)	growth (MDA-MB-435 melanoma)	growth (SW-620 colon)	growth (MCF7 breast)	growth (HCT-116 colon)	growth (HCC-2998 colon)	growth (KM12 colon)
O=C(O)CCc1ccc(N(CCCl)CCCl)cc1	inactive: 99.9%	inactive: 108%	inactive: 87.8%	inactive: 105%	inactive: 85.1%	inactive: 90.5%	inactive: 105%	inactive: 101%	inactive: 104%
ClCCN1CCc2ccccc2C1	inactive: 101%	inactive: 95.8%	inactive: 96.6%	inactive: 104%	inactive: 94.7%	inactive: 96.2%	inactive: 94.9%	inactive: 97.4%	inactive: 105%
Nc1ccc(N=Nc2ccc([As](=O)(O)O)cc2)cc1	inactive: 108%	inactive: 103%	inactive: 102%	inactive: 107%	inactive: 106%	inactive: 102%	inactive: 104%	inactive: 110%	inactive: 103%
COP(=O)(OC)N1CC1c1ccccc1 (stereo not drawn)	inactive: 104%	inactive: 115%	inactive: 83.4%	inactive: 105%	inactive: 99.3%	inactive: 104%	inactive: 105%	inactive: 103%	inactive: 107%
NCCNCCCl	inactive: 119%	inactive: 111%	inactive: 110%	inactive: 112%	inactive: 95%	inactive: 94.5%	inactive: 103%	inactive: 117%	inactive: 110%
[N-]=[N+]=NC(=O)c1cccc([N+](=O)[O-])c1	inactive: 58.9%	inactive: 45%	inactive: 78.9%	inactive: 91.9%	inactive: 71.3%	inactive: 62.5%	inactive: 36.9%	inactive: 86.4%	inactive: 45.9%
Cn1c(COc2ccc([N+](=O)[O-])cc2[N+](=O)[O-])cnc1[N+](=O)[O-]	inactive: 95.1%	inactive: 92.7%	inactive: 90.5%	inactive: 95.3%	inactive: 72.2%	inactive: 92.5%	inactive: 98.4%	inactive: 95.2%	inactive: 104%
O=P1(N(CCCl)CCCl)OCCCS1 (stereo not drawn)	inactive: 111%	inactive: 109%	inactive: 109%	inactive: 107%	inactive: 111%	inactive: 99.1%	inactive: 106%	inactive: 99.9%	inactive: 108%
ClCCN(CCc1ccccc1)Cc1ccccc1	inactive: 97.7%	inactive: 85.6%	inactive: 104%	inactive: 107%	inactive: 98.6%	inactive: 101%	inactive: 93.2%	inactive: 103%	inactive: 104%
O=C(O)/C=C\c1cccc(N(CCCl)CCCl)c1	inactive: 109%	inactive: 99.3%	inactive: 103%	inactive: 114%	inactive: 98.8%	inactive: 86.7%	inactive: 106%	inactive: 107%	inactive: 120%
CCCNC(=O)c1ccc(N(CCCl)CCCl)cc1	inactive: 92.6%	inactive: 89.4%	inactive: 97.6%	inactive: 110%	inactive: 91.1%	inactive: 82.6%	inactive: 106%	inactive: 106%	inactive: 110%
Cc1cc(C)cc(OP(=O)(Cl)Oc2cc(C)cc(C)c2)c1	inactive: 99.4%	inactive: 106%	inactive: 111%	inactive: 100%	inactive: 103%	inactive: 108%	inactive: 109%	inactive: 102%	inactive: 109%
O=P1(N(CCCl)CCCl)NCCC(C(F)(F)F)O1 (stereo not drawn)	inactive: 101%	inactive: 99.9%	inactive: 94.4%	inactive: 101%	inactive: 98%	inactive: 56%	inactive: 97.1%	inactive: 96.2%	inactive: 101%
CCN(CCCl)CC1OC(O)C(O)C1O (stereo not drawn)	inactive: 111%	inactive: 101%	inactive: 106%	inactive: 112%	inactive: 108%	inactive: 100%	inactive: 105%	inactive: 115%	inactive: 114%
ClC(Cl)(Cl)C1SCCS1	inactive: 105%	inactive: 97.6%	inactive: 105%	inactive: 102%	inactive: 102%	inactive: 100%	inactive: 107%	inactive: 110%	inactive: 120%
O=C(c1ccccc1)C(NCCCl)c1ccccc1 (stereo not drawn)	inactive: 100%	inactive: 105%	inactive: 89.5%	inactive: 100%	inactive: 100%	inactive: 86.5%	inactive: 82.3%	inactive: 97%	inactive: 99.1%

Structure (SMILES)	growth (NCI/ADR-RES ovarian)	growth (T-47D breast)	growth (BT-549 breast)	growth (MDA-MB-435 melanoma)	growth (SW-620 colon)	growth (MCF7 breast)	growth (HCT-116 colon)	growth (HCC-2998 colon)	growth (KM12 colon)
O=P(CCl)(Sc1ccc(Cl)cc1)N(CCCl)CCCl (stereo not drawn)	inactive: 100%	inactive: 86.1%	inactive: 92.2%	inactive: 96%	inactive: 92.2%	inactive: 95.5%	inactive: 94.5%	inactive: 98.5%	inactive: 103%
S=P(Cl)(N1CCCCCC1)N1CC1 (stereo not drawn)	inactive: 107%	inactive: 94.3%	inactive: 106%	inactive: 103%	inactive: 105%	inactive: 102%	inactive: 98.3%	inactive: 106%	inactive: 103%
O=C(O)CNc1ccc([As](=O)(O)O)cc1	inactive: 122%	inactive: 91.5%	inactive: 107%	inactive: 99.1%	inactive: 97.8%	inactive: 94.4%	inactive: 101%	inactive: 117%	inactive: 99.2%
O=P(Cl)(N1CCCCCC1)N1CCCCCC1	inactive: 106%	inactive: 106%	inactive: 100%	inactive: 105%	inactive: 106%	inactive: 98.8%	inactive: 104%	inactive: 111%	inactive: 99.6%
CN(CCCl)CCC(=O)c1ccccc1	inactive: 104%	inactive: 95.8%	inactive: 103%	inactive: 97.5%	inactive: 92.6%	inactive: 66.9%	inactive: 97.2%	inactive: 105%	inactive: 90.1%
O=c1ccc(Oc2ccc([N+](=O)[O-])cc2[N+](=O)[O-])nn1-c1ccc([N+](=O)[O-])cc1[N+](=O)[O-]	inactive: 66.3%	active: -36.8%	inactive: 64.4%	inactive: 69.3%	active: -66.1%	active: -42%	active: -73.2%	inactive: 73.1%	inactive: 88.7%
COC1OC(CNCCCl)C2OC(C)(C)OC12 (stereo not drawn)	inactive: 106%	inactive: 104%	inactive: 87.3%	inactive: 115%	inactive: 115%	inactive: 104%	inactive: 96%	inactive: 75.7%	inactive: 113%
CC1(CCC2(C)N=C(NN=C(CCl)CCl)SP2(=O)Nc2ncccn2)N=C(NN=C(CCl)CCl)SP1(=O)Nc1ncccn1 (stereo not drawn)	inactive: 100% [100 µM]	inactive: 97.9% [100 µM]	inactive: 108% [100 µM]	inactive: 102% [100 µM]	inactive: 104% [100 µM]	inactive: 100% [100 µM]	inactive: 105% [100 µM]	inactive: 98.5% [100 µM]	inactive: 102% [100 µM]
O=C(O)Cc1ccc(N(CCCl)CCCl)cc1	inactive: 101%	inactive: 105%	inactive: 105%	inactive: 103%	inactive: 93.4%	inactive: 93.7%	inactive: 112%	inactive: 95.4%	inactive: 105%
COC(=O)C1(C)COP(=O)(Nc2ccccc2)OC1 (stereo not drawn)	inactive: 100%	inactive: 91.9%	inactive: 102%	inactive: 105%	inactive: 102%	inactive: 103%	inactive: 99.5%	inactive: 107%	inactive: 96.2%
CCSC(O)C(Cl)(Cl)Cl (stereo not drawn)	inactive: 110%	inactive: 104%	inactive: 115%	inactive: 95.1%	inactive: 96.5%	inactive: 100%	inactive: 104%	inactive: 114%	inactive: 106%
Nc1cccc2ccc([As](=O)(O)O)cc12	inactive: 104%	inactive: 103%	inactive: 107%	inactive: 116%	inactive: 95.9%	inactive: 94.2%	inactive: 102%	inactive: 97.5%	inactive: 106%
Nc1cccc([As](=O)(O)c2ccccc2)c1	inactive: 97.1%	inactive: 107%	inactive: 117%	inactive: 105%	inactive: 106%	inactive: 92.1%	inactive: 96.2%	inactive: 93.5%	inactive: 114%
OC(CNCCCl)C(O)C(O)C(O)CNCCCl (stereo not drawn)	inactive: 96%	inactive: 91.8%	inactive: 94.6%	inactive: 105%	inactive: 95.4%	inactive: 91.2%	inactive: 96.2%	inactive: 108%	inactive: 105%
O=[N+]([O-])N=C1NCCN1	inactive: 118% and inactive: 103%	inactive: 89.3% and inactive: 104%	inactive: 124% and inactive: 99.4%	inactive: 108% and inactive: 109%	inactive: 101% and inactive: 98.4%	inactive: 106% and inactive: 110%	inactive: 107% and inactive: 99%	inactive: 102% and inactive: 104%	inactive: 98.3% and inactive: 109%
COc1cccc([As]=O)c1 (stereo not drawn)	active: -23.9%	active: -30.2%	active: -94.4%	active: -89.7%	active: -34.3%	active: -46.3%	active: -82.2%	active: -95.4%	active: -81.5%
